Consider 4 compounds from paper PMC6089501 (Journal of Medicinal Chemistry, 2018).

The test has as its system HepG2. Kind of test: cells. The settings on record: Homo sapiens.
Setting [1] is: HepG2, read-out: HepG2-Gal IC50.
The mark [2] stands for this setting: HepG2, read-out: HepG2-Glu IC50.

Each structure is given as a SMILES string. Like-named read-outs stand apart in the source and are kept apart here.

`O=C(NO)c1sc(N2CCOCC2)cc1OCCc1ccccc1` [Compound 16, 5-Morpholino-3-(2-phenylethoxy)thiophene-2-carbohydroxamic Acid]: the IC50 (as a rule, the midpoint of a concentration-inhibition curve) was 41 µM under setting [1] and 38 µM under setting [2].
For `CON(C)C(=O)c1sc(N2CCOCC2)cc1OCCc1ccccc1` [Compound 25, N-Methoxy-N-methyl-5-morpholino-3-phenethoxythiophene-2-carboxamide] the same measures were 61.8 µM and 73.2 µM.
The like results for `NC(=O)c1sc(N2CCOCC2)cc1OCCc1ccccc1` [Compound 1, 5-Morpholino-3-phenethoxythiophene-2-carboxamide] were, in that order, more than 100 µM and more than 100 µM.
As for `CCNC(=O)c1sc(N2CCOCC2)cc1OCCc1ccccc1` [Compound 22, N-Ethyl-5-morpholino-3-(2-phenylethoxy)thiophene-2-carboxamide], the IC50 reads like this: under setting [1], 57 µM; under setting [2], 47 µM.
